Test results as given in patent publication US20260384428A1, “NOVEL PRMT5 INHIBITOR AND USE THEREOF” (published 2026).
pIC50: −log10 of the molar value.

Legend:
[1] = tested on: HCT-116 MTAP(−/−) deficient cells; assay: Inhibitory activity on the proliferation of HCT-116 MTAP (−/−) deficient cells (Cell-Titer Glo); conditions: read-out: IC50 HCT-116 MTAP(−/−) deficient cells, 8 days, 37 °C, 0.1% DMSO
From the text: Test Case 1: Inhibitory Activity Test of Compounds on the Proliferation of HCT-116 MTAP (−/−) Deleted Cells
(§1) Materials and cells: HCT-116 MTAP (−/−) deficient cells were purchased from Botron Healthcare (China); RPMI-1640 medium, fetal bovine serum and penicillin-streptomycin were purchased from Thermo Fisher (United States); 384-well plates were purchased from PerkinElmer (United States); and Cell-Titer Glo kits were purchased from Promega (United States).
Cell culture: HCT116 MTAP (−/−) deleted cells were cultured in RPMI 1640 medium containing 10% fetal bovine serum+1% penicillin-streptomycin at 37 °C and 5% CO2. Cells in the logarithmic growth phase may be used for the test.
(§2) Detection of inhibitory activity on cell proliferation: The Cell-Titer Glo kit was used to detect the proliferation inhibitory activity of the compounds on HCT-116 MTAP (−/−) deficient cells. The cell concentration was adjusted, rendering that cells were inoculated into a 384-well plate at 40 μL per well and incubated overnight at 37 °C and 5% CO2. 40 nL of the compound was added into each well to reach a final concentration of 0-10,000 nM (starting concentration: 10,000 nM, 3-fold dilution, 10 points), and the cell plate with 0.1% DMSO content was incubated at 37 °C and 5% CO2 for 8 days. 40 μL of Cell-Titer Glo reagent was added to detect cell activity.

HCT-116 wild-type cells = assay: Inhibitory activity on HCT-116 wild-type cell proliferation (Cell-Titer Glo); conditions: read-out: IC50 HCT-116 wild-type cells, 8 days, 37 °C, 0.1% DMSO
Experimental: as §1, with “Test case 2: Inhibitory activity test of compounds on HCT-116 wild-type cell proliferation Materials” for “Materials”, “wild-type” for “MTAP (−/−) deficient”
Cell culture: HCT-116 wild-type cells were cultured in RPMI-1640 medium containing 10% fetal bovine serum+1% penicillin-streptomycin at 37 °C and 5% CO2. Cells in the logarithmic growth phase may be used for the test.
as §2, with “of” for “of inhibitory activity on”, “proliferation activity:” for “proliferation:”, “wild-type cell proliferation.” for “MTAP (−/−) deficient cells.”, “2-fold” for “3-fold”

[2] = Pharmacokinetic test in mice; conditions: ICR male mice; for AUClast / T1/2: plasma
Experimental: ICR male mice N=3/group; original source: Zhejiang Vital River Laboratory Animal Technology Co., Ltd.
(§3) Single oral (PO) administration to ICR mice: The compound was weighed and dissolved with DMSO, a certain volume of polyethylene glycol 400 and water for injection (WFI) were added, and then a small volume of 1 mol/L hydrochloric acid solution was added to adjust to a clear solution. 3 mice were intragastrically administered after fasting overnight at a dosage of 10 mg/kg.
as §3, with “intravenous (IV)” for “oral (PO)”, “WFI” for “water for injection (WFI)”, “were” for “were intragastrically”, “administered via tail vein injection” for “administered”, “3” for “10”
Blood was collected from the dorsalis pedis vein at approximately 30 μL/time point, anticoagulated with dipotassium ethylenediaminetetraacetate and kept on ice until plasma was separated by centrifugation (4000 g/min; 5 min; 4 °C) within 1 h. The blood sampling time points were 0.0833 (intravenous injection), 0.25, 0.5, 1, 2, 4, 6, 8, and 24 h. The samples were stored in a refrigerator at −20 °C.
30 μL of plasma sample (10 μL sample+20 μL blank plasma sample) and 200 μL ice-cold ACN containing internal standard were mixed, and then drawn into vortex for 30 s and centrifuged at 4000 g/min for 20 min. 100 μL of the supernatant was transferred to a 96-well plate, and then 200 μL of ultrapure water was added. After drawing into vortex for 30 s, 5 μL or 10 μL was injected into LC-MS/MS for analysis.

C[C@H](c1ccc(C(F)(F)F)nn1)N(C(=O)c1cc2c(cc1F)nc(N)c1cncn12)C1CC1 (single isomer, unassigned)
pIC50 [1]: 7.49
pIC50 (HCT-116 wild-type cells): 5.09
AUClast ([2]; IV (3 mg/kg)): 5699 ng·h/mL
T1/2 ([2]; IV (3 mg/kg)): 1.7 h
Bioavailability (F, %) ([2]; PO (10 mg/kg) vs IV (3 mg/kg)): 161%
AUClast ([2]; PO (10 mg/kg), fasted): 31071 ng·h/mL
T1/2 ([2]; PO (10 mg/kg), fasted): 2 h

C[C@H](c1ccc(C(F)(F)F)cn1)N(C)C(=O)c1cc2c(cn1)nc(N)c1cncn12
pIC50 [1]: 7.88
pIC50 (HCT-116 wild-type cells): 5.55

C[C@H](c1ccc(C(F)(F)F)cn1)N(C(=O)c1ccc2nc(N)c3cncn3c2c1)C1CC1
pIC50 [1]: 7.20
pIC50 (HCT-116 wild-type cells): 5.39

C[C@H](c1ccc(C(F)(F)F)cc1)N(C)C(=O)c1cc2c(cc1C#N)nc(N)c1cncn12
pIC50 [1]: 7.90
pIC50 (HCT-116 wild-type cells): 6.08

COc1ccc(CN(C(=O)c2cc3c(cc2F)nc(N)c2cncn23)C2CC2)nc1
pIC50 [1]: 7.07
pIC50 (HCT-116 wild-type cells): < 5.00

CC(c1ccc(C(F)(F)F)cn1)N(C(=O)c1ccc2nc(N)c3cncn3c2c1)C1CC1 (stereo not shown)
pIC50 [1]: 7.20
pIC50 (HCT-116 wild-type cells): 5.39

CC(c1ncccn1)N(Cc1ccc(C(F)(F)F)cn1)C(=O)c1cc2c(cc1F)nc(N)c1cncn12 (stereo not shown)
pIC50 [1]: 8.06
pIC50 (HCT-116 wild-type cells): 6.67

CC(c1ccc(C(F)(F)F)cn1)N(C(=O)c1cc2c(cc1F)nc(N)c1cncn12)C1CC1 (stereo not shown) [Example 16]
pIC50 [1]: 7.18
pIC50 (HCT-116 wild-type cells): 5.33

Nc1nc2cc(Cl)c(C(=O)N(Cc3ccc(C(F)(F)F)cn3)C3CC3)cc2n2cncc12
pIC50 [1]: 7.82
pIC50 (HCT-116 wild-type cells): 6.02

[2H]C([2H])([2H])N(C(=O)c1ccc2nc(N)c3cncn3c2c1)[C@H](C)c1ccc(C(F)(F)F)cn1
pIC50 [1]: 7.42
pIC50 (HCT-116 wild-type cells): < 5.00

C[C@H](c1ccc(C(F)(F)F)nn1)N(C)C(=O)c1ccc2nc(N)c3cncn3c2c1
pIC50 [1]: 7.14
pIC50 (HCT-116 wild-type cells): < 5.00

C[C@H](c1ccc(C(F)(F)F)cc1)N(C)C(=O)c1cc2c(cc1F)nc(N)c1cncn12
pIC50 [1]: 7.70
pIC50 (HCT-116 wild-type cells): 5.78

[2H]C([2H])([2H])N(C(=O)c1cc2c(cc1F)nc(N)c1cncn12)[C@H](C)c1ccc(C(F)(F)F)cn1
pIC50 [1]: 7.90
pIC50 (HCT-116 wild-type cells): 5.75

[2H]C([2H])([2H])N(C(=O)c1ccc2nc(N)c3cncn3c2c1)[C@@H](C)c1ccc(C(F)(F)F)cn1
pIC50 [1]: < 5.52
pIC50 (HCT-116 wild-type cells): < 5.00

[2H]C([2H])([2H])N(C(=O)c1ccc2nc(N)c3cncn3c2c1)C(C)c1ccc(C(F)(F)F)cn1 (stereo not shown)
pIC50 [1]: 7.28
pIC50 (HCT-116 wild-type cells): 5.36

C[C@H](c1ccc(C(F)(F)F)cn1)N(C)C(=O)c1cc2c(cc1Cl)nc(N)c1cncn12
pIC50 [1]: 8.18
pIC50 (HCT-116 wild-type cells): 6.10

CC(c1ncccn1)N(Cc1ccc(C(F)(F)F)cn1)C(=O)c1cc2c(cc1Cl)nc(N)c1cccn12 (stereo not shown)
pIC50 [1]: 6.73
pIC50 (HCT-116 wild-type cells): 5.64

CC(c1ccc(OC(F)(F)F)cc1)N(C(=O)c1cc2c(cc1F)nc(N)c1cncn12)C1CC1 (stereo not shown)
pIC50 [1]: 7.70
pIC50 (HCT-116 wild-type cells): < 5.00

Cc1cc2c(N)nc3ccc(C(=O)N(Cc4ccc(C(F)(F)F)cn4)C4CC4)cc3n2c1
pIC50 [1]: 5.64
pIC50 (HCT-116 wild-type cells): 5.28

C[C@H](c1ccc(C(F)(F)F)cc1)N(C)C(=O)c1cc2c(cn1)nc(N)c1cncn12
pIC50 [1]: 7.94
pIC50 (HCT-116 wild-type cells): 5.70

C[C@@H](c1cc2ccccc2cn1)N(C(=O)c1cc2c(cc1F)nc(N)c1cncn12)C1CC1
pIC50 [1]: 5.54
pIC50 (HCT-116 wild-type cells): < 5.00

C[C@H](c1ccc(C(F)(F)F)cc1)N(C)C(=O)c1ccc2nc(N)c3cncn3c2c1
pIC50 [1]: 7.69
pIC50 (HCT-116 wild-type cells): 5.58

[2H]C([2H])([2H])N(C(=O)c1cc2c(cc1F)nc(N)c1cncn12)[C@@H](C)c1ccc(C(F)(F)F)cn1
pIC50 [1]: < 5.52
pIC50 (HCT-116 wild-type cells): < 5.00

Nc1nc2ccc(C(=O)N(Cc3ccc(OC(F)(F)F)cc3)C3CC3)cc2n2cncc12
pIC50 [1]: 7.15
pIC50 (HCT-116 wild-type cells): < 5.00

CC(c1ncccn1)N(Cc1ccc(C(F)(F)F)cn1)C(=O)c1ccc2nc(N)c3cccn3c2c1 (stereo not shown)
pIC50 [1]: 7.44
pIC50 (HCT-116 wild-type cells): 6.03

C[C@@H](c1ccc(C(F)(F)F)nn1)N(C)C(=O)c1ccc2nc(N)c3cncn3c2c1
pIC50 [1]: < 5.52
pIC50 (HCT-116 wild-type cells): < 5.00

CC(c1ccc(C(F)(F)F)cc1)N(C(=O)c1cc2c(cn1)nc(N)c1cncn12)C1CC1 (stereo not shown)
pIC50 [1]: 7.75
pIC50 (HCT-116 wild-type cells): 5.49

Nc1nc2cnc(C(=O)N(Cc3ccc(C(F)(F)F)cn3)C34CC(C3)C4)cc2n2cncc12
pIC50 [1]: 7.44
pIC50 (HCT-116 wild-type cells): 5.54

CC(c1ccc(S(F)(F)(F)(F)F)cc1)N(C(=O)c1cc2c(cc1F)nc(N)c1cncn12)C1CC1 (stereo not shown)
pIC50 [1]: 7.88
pIC50 (HCT-116 wild-type cells): 6.05

C[C@@H](c1ccc(S(F)(F)(F)(F)F)cc1)N(C(=O)c1ccc2nc(N)c3cncn3c2c1)C1CC1
pIC50 [1]: 5.60
pIC50 (HCT-116 wild-type cells): < 5.00

C[C@H](c1ccc(S(F)(F)(F)(F)F)cc1)N(C(=O)c1ccc2nc(N)c3cncn3c2c1)C1CC1
pIC50 [1]: 8.33
pIC50 (HCT-116 wild-type cells): 6.39

C[C@H](c1cc2ccccc2cn1)N(C(=O)c1cc2c(cc1F)nc(N)c1cncn12)C1CC1
pIC50 [1]: 7.44
pIC50 (HCT-116 wild-type cells): 5.12

C[C@@H](c1ccc(C(F)(F)F)nn1)N(C(=O)c1cc2c(cc1F)nc(N)c1cncn12)C1CC1
pIC50 [1]: < 5.52
pIC50 (HCT-116 wild-type cells): < 5.00

CC(c1cc2ccccc2cn1)N(C(=O)c1cc2c(cc1F)nc(N)c1cncn12)C1CC1 (stereo not shown)
pIC50 [1]: 7.03
pIC50 (HCT-116 wild-type cells): < 5.00

Nc1nc2cnc(C(=O)N(Cc3ccc(C(F)(F)F)cn3)C3CC3)cc2n2cncc12
pIC50 [1]: 6.80
pIC50 (HCT-116 wild-type cells): 5.17

4-amino-7-fluoro-N-(3R,4R)-4-methoxytetrahydro-2H-pyran-3-yl)-N-(5-trifluoromethyl)pyridin-2-ylmethyl)imidazo[1,5-a]quinoxaline-8-formamide
pIC50 [1]: 7.88
pIC50 (HCT-116 wild-type cells): 6.71

C[C@@H](c1ccc(C(F)(F)F)cn1)N(C(=O)c1cc2c(cc1F)nc(N)c1cncn12)C1CC1
pIC50 [1]: 6.20
pIC50 (HCT-116 wild-type cells): < 5.00
